Data reported in PubChem BioAssay AID651725 (National Center for Advancing Translational Sciences (NCATS), 2012).
The entries are a selection whose mix differs from that of the whole data set. Some tests of the compounds listed are not included; inactive here does not mean inactive elsewhere. Calls of active or inactive are those of the source. No stated cut-off is given here; in the data, active means activity change below about -65%; inconclusive means mostly about -30% to -63%; inactive means weaker than that.

The chains behind the UniProt entries cited, without tags or fusion partners.
UniProt Q15475, whole entry: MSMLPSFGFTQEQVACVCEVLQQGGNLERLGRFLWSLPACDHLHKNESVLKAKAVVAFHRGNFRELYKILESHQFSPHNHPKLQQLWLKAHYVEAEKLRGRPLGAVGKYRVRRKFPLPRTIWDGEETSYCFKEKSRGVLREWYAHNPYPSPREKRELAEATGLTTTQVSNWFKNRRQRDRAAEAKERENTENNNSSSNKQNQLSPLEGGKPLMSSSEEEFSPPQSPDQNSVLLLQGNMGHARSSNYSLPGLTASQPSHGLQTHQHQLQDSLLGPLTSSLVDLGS

target: Homeobox protein SIX1 (Homo sapiens) + Protein phosphatase EYA2 (Homo sapiens) (UniProt Q15475+O00167); test: qHTS Assay for Inhibitors of the Six1/Eya2 Interaction; conditions: AlphaScreen GST-Six1/His-Eya2 binding, biochemical; active compounds read low
From the text: Its expression is low or undetectable in normal adult breast tissue but the gene is over-expressed in 50% of primary breast tumors and 90% of metastatic lesions. […] Similar to Six1, Eya2 is also not expressed in most normal adult tissues, but is reexpressed in cancers. The Six1-Eya interaction is essential for proliferation during embryonic development, and both Six1 and Eya2 have been independently implicated in the same types of cancer. Because Six1 and Eya2 are embryonic genes with little expression in adult tissues, inhibitors of their expression/activity are likely to have limited side effects. Our goal is to identify inhibitors of the Six1/Eya interaction for potential cancer therapy. To this end, we have developed a homogenous AlphaScreen assay targeting the Six1/Eya interaction. We performed a large scale HTS of the Molecular Libraries Small Molecule Repository (MLSMR) to identify inhibitors of the Six1/Eya interaction as potential anti-cancer therapeutics. Compounds identified can also be used as chemical probes to better understand the biological functions of Six1 and Eya. NIH Chemical Genomics Center [NCGC] NIH Molecular Libraries Probe Centers Network [MLPCN] MLPCN Grant: DA033147 Assay Submitter (PI): Rui Zhao, University of Colorado Denver
The first step of the 5 uL AlphaScreen assay is to dispense assay buffer (50 mM Tris, pH 8.0, 300 mM NaCl, 0.05% BSA, 0.02% Tween 20, 1 mM TCEP) into a Greiner 1536 white solid bottom microtiter plate (789175-F). Five microliters is added to Column 1, 4 uL is added to Column 2 and 3 uL is added to Columns 3 through 48. A 5X protein solution (250 nM GST-Six1 protein + 500 nM His-tagged Eya2 protein) is mixed and 1 uL is dispensed to Columns 3-48. Using a 1536 pintool, 23 nL of compound is transferred to the assay plate. A solution of 5X AlphaScreen beads is mixed (50 ug/mL Glutathione linked donor beads + Nickel chelated acceptor beads) and 1 uL is dispensed to Columns 2-48. The assay plate is incubated for one hour, with a lid, at 37 deg C in the dark. The plate is read using a Perkin Elmer Envision using an AlphaScreen protocol.
On the % scale 0 is the no-effect control and ±100 the full control effect.

How did the activity change turn out when `COc1ccc(Br)c(C(=O)NCC2(N3CCCCC3)CCCCC2)c1` was run?
Its activity change is inactive: -0.876%.

`C=C(C)C#CC(O)(C(=O)OC1CCN(C)CC1)c1ccccc1` (stereo unspecified) was tested. Which activity change did it give?
Its activity change is inactive: 12.7%.

`CN(C)c1cccc(C(=O)NCC2(N(C)C)CCCCC2)c1` was tested. Which activity change did it give?
Its activity change is inactive: -15.4%.

Which activity change does the source give for `O=C(OCCN1CCCC1)C(O)(c1ccccc1)c1ccccc1` here?
Its activity change is inactive: -5.46%.

Which activity change does the source give for `CC(C)Oc1ccc(C(=O)NCC2(N(C)C)CCCCC2)cc1` here?
Its activity change is inactive: 5.63%.

For `O=C(OC1CN2CCC1CC2)C(CO)(c1ccccc1)c1ccccc1` (stereo unspecified), which activity change is on record?
The activity change was inactive: 10.8%.

With `COc1ccc(Cl)cc1C(=O)NCC1(N(C)C)CCCCC1` as the molecule, how does the activity change read?
Its activity change is inactive: -4.35%.

With `COc1cccc(C(=O)NCC2(N3CCCCC3)CCCCC2)c1` as the molecule, how does the activity change read?
The activity change was inactive: 8.45%.

With `O=C(NCC1(N2CCCCC2)CCCCC1)c1cccc(Cl)c1` as the molecule, how does the activity change read?
Its activity change is inactive: -8.54%.

`CN(C)C1(CNC(=O)c2ccc(Br)cc2)CCCCC1` was tested. Which activity change did it give?
The activity change was inactive: -3.23%.

`COc1cc(C(=O)NCC2(N(C)C)CCCCC2)c([N+](=O)[O-])cc1OC` was tested. Which activity change did it give?
Its activity change is inactive: 7.6%.

With `O=C(NCC1(N2CCCCC2)CCCCC1)c1cc(F)c(F)cc1Cl` as the molecule, how does the activity change read?
Its activity change is inactive: -1.07%.

With `C=CCN1CCN(CCOC(=O)C(O)(c2ccccc2)c2ccccc2)CC1` as the molecule, how does the activity change read?
Its activity change is inactive: 5.33%.

For `O=C(NCC1(N2CCCCC2)CCCCC1)c1cccc(Br)c1`, which activity change is on record?
Its activity change is inactive: -0.621%.

How did the activity change turn out when `Cc1cc(C(=O)NCC2(N3CCCCC3)CCCCC2)ccc1[N+](=O)[O-]` was run?
Its activity change is inactive: 12.7%.

`CCN1CCCC(OC(=O)C2(O)c3ccccc3C=Cc3ccccc32)C1` (stereo unspecified) was tested. Which activity change did it give?
Its activity change is inactive: 4.15%.

Which activity change does the source give for `COc1ccc(C(=O)NCC2(N(C)C)CCCCC2)cc1` here?
Its activity change is inactive: 4.08%.

`CN(C)C1CCCC1OC(=O)C(O)(c1ccccc1)c1ccccc1` (stereo unspecified) was tested. Which activity change did it give?
Its activity change is inactive: 0%.

With `CN(C)c1ccc(C(=O)NCC2(N(C)C)CCCCC2)cc1` as the molecule, how does the activity change read?
Its activity change is inactive: 6.15%.

`Cc1ccccc1C(=O)NCC1(N2CCCCC2)CCCCC1` was tested. Which activity change did it give?
Its activity change is inactive: 2.36%.

How did the activity change turn out when `CC(C)N1C(=O)CC2(CCN(CCOC(=O)C(O)(c3ccccc3)c3ccccc3)CC2)C1=O` was run?
The activity change was inactive: -1.7%.

How did the activity change turn out when `COc1cc(SC)ccc1C(=O)NCC1(N(C)C)CCCCC1` was run?
The activity change was inactive: 15.5%.

Which activity change does the source give for `CCN(CC)CC(C)C(C)OC(=O)C(O)(c1ccccc1)c1ccccc1` (stereo unspecified) here?
The activity change was inactive: 0.954%.

How did the activity change turn out when `Cc1ccc(C(=O)NCC2(N3CCCCC3)CCCCC2)cc1` was run?
Its activity change is inactive: -0.764%.

For `O=C(NCC1(N2CCCCC2)CCCCC1)c1cc([N+](=O)[O-])ccc1Cl`, which activity change is on record?
Its activity change is inactive: -1.52%.

For `CN1[C@@H]2CC[C@H]1CC(OC(=O)C(O)(c1ccccc1)c1ccccc1)C2` (stereo partly specified), which activity change is on record?
Its activity change is inactive: 2.43%.
